biological target: JAK2 (JH1domain-catalytic, Y1007F,Y1008F) kinase (Homo sapiens (Human), UniProt O60674, Y1007F/Y1008F); conditions: read-out: JAK2 Kd; JAK2 JH1 domain-catalytic, Y1007F,Y1008F; qPCR readout

Protein sequences, listed by entry. Tags and fused reporters are not part of them. Residues count along the entry.
UniProt O60674, 849-1124 Y1007F/Y1008F: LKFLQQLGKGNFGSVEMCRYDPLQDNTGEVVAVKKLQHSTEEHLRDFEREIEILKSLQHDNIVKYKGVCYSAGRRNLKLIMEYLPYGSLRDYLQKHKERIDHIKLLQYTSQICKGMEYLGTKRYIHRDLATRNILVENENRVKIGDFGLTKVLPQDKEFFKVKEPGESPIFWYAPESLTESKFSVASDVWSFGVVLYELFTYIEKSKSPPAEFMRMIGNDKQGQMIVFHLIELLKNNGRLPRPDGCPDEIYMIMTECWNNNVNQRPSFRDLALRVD

Kd, < 10 nM:
CC(=O)Nc1cc(Oc2cnc3nc(Nc4cc(C(C)(C)C)n([C@H]5CCOC5)n4)n(C)c3c2Cl)ccn1 [Example I-142, (S)—N-(4-((2-((5-(tert-butyl)-1-(tetrahydrofuran-3-yl)-1H-pyrazol-3-yl)amino)-7-chloro-1-methyl-1H-imidazo[4,5-b]pyridin-6-yl)oxy)pyridin-2-yl)acetamide]
CC(=O)Nc1cc(Oc2cnc3nc(Nc4cc(C(F)(F)C(F)(F)F)n([C@@H]5CCOC5)n4)n(C)c3c2Cl)ccn1 [Example I-145, (R)—N-(4-((7-chloro-1-methyl-2-((5-(perfluoroethyl)-1-(tetrahydrofuran-3-yl)-1H-pyrazol-3-yl)amino)-1H-imidazo[4,5-b]pyridin-6-yl)oxy)pyridin-2-yl)acetamide]
CC(=O)Nc1cc(Oc2cnc3nc(Nc4cc(C(F)(F)C(F)(F)F)n([C@H]5CCOC5)n4)n(C)c3c2Cl)ccn1 [Example I-146, (S)—N-(4-((7-chloro-1-methyl-2-((5-(perfluoroethyl)-1-(tetrahydrofuran-3-yl)-1H-pyrazol-3-yl)amino)-1H-imidazo[4,5-b]pyridin-6-yl)oxy)pyridin-2-yl)acetamide]
CC(=O)Nc1cc(Oc2cnc3nc(Nc4cc(C(C)(C)C)n([C@@H]5CCOC5)n4)n(C)c3c2C(F)F)ccn1 [Example I-147, (R)—N-(4-((2-((5-(tert-butyl)-1-(tetrahydrofuran-3-yl)-1H-pyrazol-3-yl)amino)-7-(difluoromethyl)-1-methyl-1H-imidazo[4,5-b]pyridin-6-yl)oxy)pyridin-2-yl)acetamide]
CC(=O)Nc1cc(Oc2cnc3nc(Nc4cc(C(C)(C)C#N)n([C@H]5CCOC5)n4)n(C)c3c2Cl)ccn1 [Example I-149, (S)—N-(4-((7-chloro-2-((5-(2-cyanopropan-2-yl)-1-(tetrahydrofuran-3-yl)-1H-pyrazol-3-yl)amino)-1-methyl-1H-imidazo[4,5-b]pyridin-6-yl)oxy)pyridin-2-yl)acetamide]
CO[C@H]1C[C@H](n2nc(Nc3nc4ncc(Oc5ccnc(NC(C)=O)c5)c(Cl)c4n3C)cc2C(F)(F)C(F)(F)F)C1 [Example I-150, trans-N-(4-((7-chloro-2-((1-(3-methoxycyclobutyl)-5-(perfluoroethyl)-1H-pyrazol-3-yl)amino)-1-methyl-1H-imidazo[4,5-b]pyridin-6-yl)oxy)pyridin-2-yl)acetamide]
Cn1c(Nc2nn([C@@H]3CCOC3)c(C(C)(C)C)c2F)nc2ncc(Oc3ccnc(NC(=O)C4CC4)c3)cc21 [Example I-151, (R)—N-(4-((2-((5-(tert-butyl)-4-fluoro-1-(tetrahydrofuran-3-yl)-1H-pyrazol-3-yl)amino)-1-methyl-1H-imidazo[4,5-b]pyridin-6-yl)oxy)pyridin-2-yl)cyclopropane-carboxamide]
Cn1c(Nc2nn([C@H]3CCOC3)c(C(C)(C)C)c2F)nc2ncc(Oc3ccnc(NC(=O)C4CC4)c3)cc21 [Example I-152, (S)—N-(4-((2-((5-(tert-butyl)-4-fluoro-1-(tetrahydrofuran-3-yl)-1H-pyrazol-3-yl)amino)-1-methyl-1H-imidazo[4,5-b]pyridin-6-yl)oxy)pyridin-2-yl)cyclopropanecarboxamide]
CC(=O)Nc1cc(Oc2cnc3nc(Nc4cc(C(C)(C)C)n([C@H]5CCOC5)n4)n(C)c3c2C(F)F)ccn1 [Example I-153, (S)—N-(4-((2-((5-(tert-butyl)-1-(tetrahydrofuran-3-yl)-1H-pyrazol-3-yl)amino)-7-(difluoromethyl)-1-methyl-1H-imidazo[4,5-b]pyridin-6-yl)oxy)pyridin-2-yl)acetamide]
CCc1c(Oc2ccnc(NC(C)=O)c2)cnc2nc(Nc3cc(C(C)(C)C#N)n([C@H]4CCOC4)n3)n(C)c12 [Example I-154, (S)—N-(4-((2-((5-(2-cyanopropan-2-yl)-1-(tetrahydrofuran-3-yl)-1H-pyrazol-3-yl)amino)-7-ethyl-1-methyl-1H-imidazo[4,5-b]pyridin-6-yl)oxy)pyridin-2-yl)acetamide]
